{
  "sequences": {"note": "By UniProt entry, the sequences of proteins in these tests, tags left out.", "UniProt P49146, whole entry": "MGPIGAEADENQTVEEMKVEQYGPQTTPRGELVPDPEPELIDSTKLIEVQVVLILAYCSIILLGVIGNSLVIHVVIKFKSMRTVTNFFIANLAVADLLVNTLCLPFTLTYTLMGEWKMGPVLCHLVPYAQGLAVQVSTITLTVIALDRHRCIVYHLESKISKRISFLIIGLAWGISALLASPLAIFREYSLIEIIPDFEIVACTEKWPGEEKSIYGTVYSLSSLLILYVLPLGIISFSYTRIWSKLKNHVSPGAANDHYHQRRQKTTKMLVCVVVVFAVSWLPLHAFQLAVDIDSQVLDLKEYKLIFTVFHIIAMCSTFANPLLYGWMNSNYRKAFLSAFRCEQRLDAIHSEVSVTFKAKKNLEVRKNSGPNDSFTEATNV"},
  "source": "PubChem BioAssay AID793",
  "about": "(The Scripps Research Institute Molecular Screening Center, 2007)",
  "note": "This is a selection; strong and weak results do not stand in their true shares. Activity calls are given as the source filed them. Cut-off read from the data, not from the text of the source: active = inhibition above about 17%; inactive = the rest.",
  "data": [
    {"molecular_target": "Neuropeptide Y receptor type 2 (Homo sapiens) (UniProt P49146)", "test": "blockers of human neuropeptide Y Y2 receptor – cell-based, primary screen (AID 793);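 note: 0% = vehicle with agonist challenge and 100% = reference antagonist with challenge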", "conditions": "NPY-Y2 expressing cells, antagonist mode; at 2.7 µM; hits give high values", "values": [
      {"smiles": "c1ccc(CN2CCC(Nc3ccccc3)CC2)cc1", "inhibition": "inactive: 2.52%"},
      {"smiles": "N/C(=N\\O)c1c(N)no[n+]1[O-]", "inhibition": "inactive: 2.13%"},
      {"smiles": "O=C(OC1CN2CCC1CC2)C1c2ccccc2C=Cc2ccccc21", "note": "(stereo not drawn)", "inhibition": "inactive: 3.88%"},
      {"smiles": "CCOc1ncccc1C(=O)NCC1(N2CCOCC2)CCCCC1", "inhibition": "inactive: -0.28%"},
      {"smiles": "CCC(CO)(C(=O)OC1CN2CCC1CC2)c1ccccc1", "note": "(stereo not drawn)", "inhibition": "inactive: 2.42%"},
      {"smiles": "CCN1CCC(Nc2cccc(F)c2)CC1", "inhibition": "inactive: 2.9%"},
      {"smiles": "COc1ccc(NC2CCN(CCc3ccccc3)CC2)c(OC)c1", "inhibition": "inactive: 1.81%"},
      {"smiles": "O=C(NCC1(N2CCOCC2)CCCCC1)c1cc2ccccc2o1", "inhibition": "inactive: -0.03%"},
      {"smiles": "O=C(OC1CN2CCC1CC2)C1c2ccccc2Oc2ccccc21", "note": "(stereo not drawn)", "inhibition": "inactive: 7.6%"},
      {"smiles": "CN1CCC(Nc2cccc(F)c2)CC1", "inhibition": "inactive: 1.57%"},
      {"smiles": "N#CC1(Nc2ccccc2)CCN(CCc2ccccc2)CC1", "inhibition": "inactive: 1.19%"},
      {"smiles": "CN1CCN(CCOC(=O)C(O)(c2ccccc2)c2ccccc2)CC1", "inhibition": "inactive: 1.98%"},
      {"smiles": "O=C(NCC1(N2CCOCC2)CCCCC1)c1cc(=O)[nH]c2ccccc12", "inhibition": "inactive: 0.55%"}
    ]}
  ]
}
